The values that follow are results of earlier work, collected in patent US20020160991A1.

With G-2-beta-cyclodextrin, the solubility in water is recorded as 147 % soluble (w/v).

In the case of triacetyl-beta-cyclodextrin, the solubility in water result was “insoluble”.
